This note sets out measurements from patent US6685617B1, “Inhibitors of α4β1 mediated cell adhesion” (Pharmacia & Upjohn Company, priority 1998, dated 2004).

Sequences of proteins named here, by UniProt entry; tags and fusion partners are left off. Residues count along the entry.
UniProt P05556, 21-798 limits assumed: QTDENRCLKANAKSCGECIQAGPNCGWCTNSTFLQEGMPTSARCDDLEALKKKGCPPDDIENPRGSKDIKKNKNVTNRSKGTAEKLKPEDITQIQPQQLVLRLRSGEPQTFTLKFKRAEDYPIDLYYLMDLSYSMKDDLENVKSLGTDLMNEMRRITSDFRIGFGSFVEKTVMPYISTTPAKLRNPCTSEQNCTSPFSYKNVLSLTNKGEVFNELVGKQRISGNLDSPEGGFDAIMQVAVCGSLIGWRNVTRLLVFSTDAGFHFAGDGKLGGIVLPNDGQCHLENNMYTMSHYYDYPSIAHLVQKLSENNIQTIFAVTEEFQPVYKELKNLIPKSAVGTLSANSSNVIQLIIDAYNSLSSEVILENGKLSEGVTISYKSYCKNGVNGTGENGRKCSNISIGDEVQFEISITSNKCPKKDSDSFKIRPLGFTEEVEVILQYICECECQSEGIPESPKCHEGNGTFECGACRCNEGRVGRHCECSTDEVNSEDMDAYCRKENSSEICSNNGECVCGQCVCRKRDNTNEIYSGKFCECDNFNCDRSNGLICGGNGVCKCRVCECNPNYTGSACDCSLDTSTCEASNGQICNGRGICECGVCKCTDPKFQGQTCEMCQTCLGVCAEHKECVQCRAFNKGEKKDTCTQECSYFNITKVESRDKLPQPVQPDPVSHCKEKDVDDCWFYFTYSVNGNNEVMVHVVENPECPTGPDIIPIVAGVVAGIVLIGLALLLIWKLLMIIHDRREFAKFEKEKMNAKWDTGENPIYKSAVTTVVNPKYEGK
UniProt P13612, 34-1032 limits assumed: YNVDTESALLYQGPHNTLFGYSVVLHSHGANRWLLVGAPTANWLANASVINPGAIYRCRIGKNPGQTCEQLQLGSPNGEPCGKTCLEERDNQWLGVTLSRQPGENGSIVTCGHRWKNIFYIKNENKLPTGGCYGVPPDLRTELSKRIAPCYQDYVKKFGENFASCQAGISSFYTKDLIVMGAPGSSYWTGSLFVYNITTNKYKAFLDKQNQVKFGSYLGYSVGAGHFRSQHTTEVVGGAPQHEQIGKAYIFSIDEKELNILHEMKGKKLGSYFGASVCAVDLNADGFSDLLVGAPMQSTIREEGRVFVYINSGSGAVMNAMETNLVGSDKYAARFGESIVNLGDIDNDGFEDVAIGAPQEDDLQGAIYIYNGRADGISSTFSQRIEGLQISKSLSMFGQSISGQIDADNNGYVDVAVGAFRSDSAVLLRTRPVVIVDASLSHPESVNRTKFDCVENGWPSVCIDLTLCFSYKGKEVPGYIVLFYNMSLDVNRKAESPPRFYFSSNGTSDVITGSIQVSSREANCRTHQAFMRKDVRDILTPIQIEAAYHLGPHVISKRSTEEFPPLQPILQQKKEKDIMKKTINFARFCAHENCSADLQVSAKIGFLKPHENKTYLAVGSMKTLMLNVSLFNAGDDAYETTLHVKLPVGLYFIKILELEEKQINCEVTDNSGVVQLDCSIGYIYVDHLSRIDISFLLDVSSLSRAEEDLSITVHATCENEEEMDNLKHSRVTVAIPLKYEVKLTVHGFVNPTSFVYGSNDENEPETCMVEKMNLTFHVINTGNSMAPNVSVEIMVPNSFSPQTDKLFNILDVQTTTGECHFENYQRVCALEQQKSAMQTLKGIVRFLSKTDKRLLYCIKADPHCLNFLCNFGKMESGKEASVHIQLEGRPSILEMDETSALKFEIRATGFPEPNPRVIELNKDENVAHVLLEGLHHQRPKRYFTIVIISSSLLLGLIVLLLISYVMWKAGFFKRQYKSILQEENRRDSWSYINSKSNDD

The structures appear in SMILES notation.

Experiment [1] concerns the target α4β1 integrin (Jurkat cell adhesion to immobilized CS-1 derived peptide CLHPGEILDVPST) (Homo sapiens, UniProt P05556+P13612). The experiment can be described thus: Jurkat-CS-1 assay. The conditions noted are these: read-out: JK/CS-1 (Jurkat CS-1 Assay IC50 value range); Jurkat cells on CS-1 peptide coated plates. Here is the method:
The CS-1 derived peptide, CLHPGEILDVPST, and the scrambled control peptide, CLHGPIELVSDPT, were synthesized on a Beckman 990 synthesizer using t-Boc methodology. The peptides were immobilized onto microtiter plates using the heterobifunctional crosslinker 3-(2-pyridyldithio)propionic acid N-hydroxysuccinimide ester (SPDP) as reported by Pierschbacher et al., Proc. Natl. Acad. USA, 80:1224-1227 (1983). Microtiter plates were coated with 20 μg/ml HSA for 2 hr. at room temperature, washed once with PBS and derivatized with 10 μg/ml SPDP for 1 hr. After washing, 100 μl of a 100 μg/ml cysteine containing peptide solution which had been recently dissolved was added to the wells and allowed to crosslink to the plates overnight at 4° C. Unbound peptide was removed from plates by washing with PBS. To block non-reacted sites, the plates are coated with 100 μl of a 2.5 mg/ml BSA solution in PBS for 1 hr. at 37° C. 100 μl of Jurkat cells (2.5×10^6 cells/ml) in DMEM plus BSA (2.5 mg/ml) was mixed with an appropriate concentration of the compound to be tested and the mixture was added to peptide coated dishes and incubated for 1 hr. at 37° C. Generally 100, 20, 5 and 1.25 μM concentrations of the compound were tested.
Following this incubation the plates were washed once with PBS and the attached cells were fixed with 3% paraformaldehyde in PBS and stained with 0.5% toluidine blue in 3.7% formaldehyde. The cells were stained overnight at room temperature and the optical density at 590 nm of toluidine blue stained cells was determined using a vertical pathway spectrophotometer to quantitate attachment (VMAX Kinetic Microplate Reader, Molecular Devices, Menlo Park, Calif.). This procedure is a modification of a previously published method (Cardarelli et al, J. Biol. Chem., 269:18668-18673 (1994) and Cardarelli et al, Proc. Natl. Acad. Sci. USA, 83:2647-2651 (1986)).

Experiment [2] deals with VLA-4 integrin-dependent eosinophil infiltration. The experiment is described as follows: Dextran pleurisy model (intrapleural dextran, pleural leukocyte infiltration). The conditions noted are these: dose 50 × 2 iv; mouse, 4 h after intrapleural dextran. Here is the method: Animals, Housing and Viral Testing:
C57BL/6 mice (Jackson, Bar Harbor, Me.), 6-8 weeks old, weighing 20-25 g were used throughout. All mice were acclimated for at least 7-14 days after arrival and maintained under controlled temperature (20-22° C.) and a 12 hr daily light cycle (6.00 A.M.-6.00 P.M.). Mice were housed in laminar flow racks and checked biweekly for viral infections (mouse hepatitis virus, minute virus of mice, rodent orphan parvovirus, Sendai) with kits obtained from Oreganon Teknika (Durham, N.C.) using established enzyme-linked immunoabsorbent assays. Mice testing positive for any of the above were omitted from the study. […]
Quantitation of Pleural Inflammatory Leukocyte Responses: […]
The pleural cavities of mice receiving either no intrapleural injection, or saline were washed and the cells counted in the same way to estimate baseline or saline-induced pleural leukocyte counts respectively. […]
The following compounds were tested for their inhibitory effects on dextran-induced leukocyte infiltration: Examples 3, 8, 9, 10, 12, 16, 37, 62, 66, 67, 99, 100, 111, 113, 115, 127, 131, 141, 184, 185, 192, PBS (saline) was administered iv. as a control. Inhibition of eosinophil infiltration, which was suppressed by anti-alpha-4 Mab (PS/2, 50%), was used as a readout of VLA-4 antagonist activity of the compounds tested. […]

The target of experiment [3] is α4β1 integrin (Jurkat T-cell adhesion to IL-1 stimulated endothelial cell monolayers) (Homo sapiens, UniProt P05556+P13612). The experiment is described as follows: Jurkat-endothelial cell adhesion assay (Jurkat EC). The note with it: read-out: JK/EC (Jurkat EC Assay IC50 value range); Jurkat cells on IL-1 stimulated human umbilical vein endothelial cells. As for the experimental part: Jurkat-endothelial Cell Adhesion Assay:
The following assay established the activity of the present compounds in inhibiting β1-mediated cell adhesion in a representative in vitro system. This assay measures the adhesive interactions of a T-cell line, Jurkat, known to express the α4β1 integrin, to endothelial monolayers in the presence of test compounds. The test compounds were added in increasing concentrations to T-cells and then the T-cell compound mixture was added to IL-1 stimulated endothelial cell monolayers. The plates were incubated, washed and the percentage of attached cells was quantitated. […]
Confluent endothelial monolayers, grown in 96-well tissue culture plates, were stimulated for 4 hr. at 37° C. with 0.1 ng/ml (˜50 U/ml) recombinant IL-1 (Amgen, Thousand Oaks, Calif.). […] Following this incubation, the monolayers were washed twice with PBS containing 1 mM calcium chloride and 1 mM magnesium chloride and the plates were read using a Millipore Cytofluor 2300 (Marlboro, Mass.). Fluorescence in each well was measured as Arbitrary Fluorescence Units and percent adhesion in the absence of compound was adjusted to 100% and the % adhesion in the presence of compound was calculated. Monolayers were also fixed in 3% paraformaldehyde and evaluated microscopically to verify the adhesion. […]

Consider `O=C(O)CCC(=O)N1CCCC[C@@H]1C(=O)N[C@@H](Cc1ccc(NC(=O)c2c(Cl)cccc2Cl)cc1)C(=O)O`, for which the IC50 in experiment [1] was in the range of 50 to 750 nM.

`O=C(O)c1cncc(C(=O)N2CCCC[C@H]2C(=O)N[C@@H](Cc2ccc(NC(=O)c3c(Cl)cccc3Cl)cc2)C(=O)O)c1` [Example 172, 5-[[(2S)-2-[[[(1S)-1-Carboxy-2-[4-[(2,6-dichlorobenzoyl)amino]phenyl]ethyl]amino]carbonyl]-1-piperidinyl]carbonyl]-3-pyridinecarboxylic Acid]: the “% Inhibition of Eosinophil infiltration (Eos)” value in experiment [2] is “B (B: 20-39)”. Also, the IC50 in experiment [1] was less than 50 nM.

`O=C(O)c1cncc(C(=O)N2CCCC[C@@H]2C(=O)N[C@@H](Cc2ccc(NC(=O)c3c(Cl)cccc3Cl)cc2)C(=O)O)c1`: the IC50 was 50 to 750 nM in experiment [1] and less than 250 nM in experiment [3].
